The list shows a part of the results, in another mix than the full data. Results filed as inconclusive are left out. The source made the active and inactive calls. Cut-off read from the data, not from the text of the source: active = max dye-equivalent concentration above about 10 nM; inconclusive = between about 1.1 nM and that limit; inactive = weaker than that.

This assay can be described thus: qHTS Assay for Spectroscopic Profiling in Texas Red Spectral Region. As to conditions: Compound fluorescence, Texas Red channel, 547/618 nm. The text has this: NIH Molecular Libraries Screening Centers Network [MLSCN] NIH Chemical Genomics Center [NCGC] […] Occasionally, the artifactual effect may originate from the compound#s own spectral or other biophysical properties which generally tend to track its assay concentration. Pre-screening/profiling the library with respect to the compounds# spectral properties should help one exclude false positives early on. While the most informative fluorescent profiling data set is obtained by performing a full excitation and emission scan of each well by using a monochromator-based plate reader, such an approach is practical only on a very limited scale as scanning each well requires long time. An alternative approach, applied here, is to perform plate reader scans using selected excitation and emission wavelength pairs to generate a multidimensional relational database that correlates compound concentration and the respective relative fluorescence intensity at a given wavelength set. A standard curve of Texas Red (TR) present on each plate as six-point concentration series, was used to compute a normalized fluorescence response, termed dye-equivalent concentration, for each compound at each concentration.
NCGC Assay Protocol Summary: Buffer: 100 mM Tris buffer, pH 8.0 Dye standard plate: The wells in columns 1 through 4 of a Kalypsys polypropylene 1536-well compound plate were filled with standard solutions of fluorophore corresponding to the spectral region of interest. Solutions of TR were placed in the following wells: U1, V1: 3 mM, U2, V2: 300 uM, U3, V3: 30 uM, U4, V4: zero (DMSO), W1, X1: 3 uM, W2, X2: 900 nM, W3, X3: 300 nM, W4, X4: zero (DMSO). Assay Steps: Six uL of buffer were dispensed to 1536-well Greiner black plates. Compounds and dye standards (23 nL) were transferred via Kalypsys PinTool. The plates were incubated for 15 min at room temperature, and then read on ViewLux (Perkin-Elmer) High-throughput CCD imager using 547 nm and 618 nm excitation and emission filter set. Keywords: NIH Roadmap, MLSCN, MLI, MLSMR, qHTS, NCGC, Texas Red, Fluorescent Profiling.
In general terms: qHTS replaces the single test concentration by a dilution series.
In the case of `O=C(OC1CN2CCC1CC2)C1c2ccccc2Oc2ccccc21` (stereo not drawn), the compound was called inactive. `O=C(O)C1(Nc2ccccc2)CCN(Cc2ccccc2)CC1`: the compound was classed as inactive. Consider `N/C(=N\O)c1c(N)no[n+]1[O-]`, for which the result was inactive.

(Values after PubChem BioAssay AID587 (National Center for Advancing Translational Sciences (NCATS), 2007).)
